Measured values reported in US9199981B2 (NOVARTIS AG, priority 2011, dated 2015).

Sequences of proteins named here, by UniProt entry; tags and fusion partners are left off. Residues count along the entry.
UniProt P10721, 26-976: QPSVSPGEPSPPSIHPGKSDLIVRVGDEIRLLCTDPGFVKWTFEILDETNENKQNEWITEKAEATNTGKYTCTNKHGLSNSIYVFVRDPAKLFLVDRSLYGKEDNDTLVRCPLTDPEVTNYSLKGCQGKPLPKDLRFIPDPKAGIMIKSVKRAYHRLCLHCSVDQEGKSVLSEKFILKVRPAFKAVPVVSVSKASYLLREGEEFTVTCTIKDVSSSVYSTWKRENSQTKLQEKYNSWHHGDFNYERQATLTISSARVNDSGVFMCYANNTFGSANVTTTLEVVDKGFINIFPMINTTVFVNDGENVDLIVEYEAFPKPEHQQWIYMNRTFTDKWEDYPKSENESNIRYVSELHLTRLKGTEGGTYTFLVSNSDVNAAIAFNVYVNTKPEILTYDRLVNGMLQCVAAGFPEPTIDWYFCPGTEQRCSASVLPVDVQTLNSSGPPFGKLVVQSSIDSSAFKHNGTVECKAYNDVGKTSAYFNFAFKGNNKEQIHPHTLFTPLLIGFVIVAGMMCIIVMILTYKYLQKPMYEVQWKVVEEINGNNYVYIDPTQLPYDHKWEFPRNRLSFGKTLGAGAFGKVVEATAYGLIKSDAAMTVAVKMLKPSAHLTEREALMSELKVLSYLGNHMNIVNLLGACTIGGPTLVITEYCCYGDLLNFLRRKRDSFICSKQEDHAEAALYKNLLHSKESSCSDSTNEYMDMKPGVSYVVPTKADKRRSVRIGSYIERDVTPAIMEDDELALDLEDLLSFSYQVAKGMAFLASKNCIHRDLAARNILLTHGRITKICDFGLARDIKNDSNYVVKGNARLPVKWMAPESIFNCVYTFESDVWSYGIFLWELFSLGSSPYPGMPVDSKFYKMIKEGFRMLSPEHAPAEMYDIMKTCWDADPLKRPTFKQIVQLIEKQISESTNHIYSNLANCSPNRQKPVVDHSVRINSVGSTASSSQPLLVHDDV

Target: c-kit (Homo sapiens (Human), UniProt P10721)
Assay: Mo7e cell proliferation assay (SCF dependent proliferation)
Type: cell-based
Details: Mo7e cells stimulated with human recombinant SCF, 48 hours, 1% FBS
Description: Compounds of Formula (I) and Formula (II) provided herein were assayed to measure their capacity to inhibit c-kit and PDGFR kinases using the appropriate assay described below: c-Kit inhibition was evaluated using the Mo7e cell proliferation assay, and PDGFR inhibition was evaluated using the Rat A10 cell proliferation assay and the Human TG/HA-VSMC cell proliferation assay.
Mo7e Cell Proliferation Assay
The compounds of Table 1 and Table 2 were tested for inhibition of SCF dependent proliferation using human Mo7e cells which endogenously express c-kit in a 384 well format. […] After 48 hours of incubation at 37° C., cell viability was measured by adding 25 uL of CellTiter Glo (Promega) to the cells and the luminescence was measured by a CLIPR CCD camera (Molecular Devices).
The IC50 value is given as that concentration of the test compound in question that provoke a response halfway between the baseline and maximum responses.

IC50 [nM] | SMILES
66 | Cc1ccc(-c2noc(C3CC4(CC(O)C4)C3)n2)cc1NC(=O)c1cnc2ccccn12 (centres unmarked) [F100, N-(5-(5-(6-hydroxyspiro[3.3]heptan-2-yl)-1,2,4-oxadiazol-3-yl)-2-methylphenyl)imidazo[1,2-a]pyridine-3-carboxamide]
135 | Cc1ccc(-c2noc(C3CC(O)C3)n2)cc1NC(=O)c1cnc2ccccn12 (centres unmarked) [F122]
